# Patent publication US7927622B1, “Methods of transnasal transport/immunization with highly adaptable carriers” (priority 1999, dated 2011)
# System: anti-TT antibodies
# Parameters: species or system mice
# Details: mouse, in vivo
substance,measurement,value
IFN-γ,generation of anti-TT antibodies,probably
